IntAct's records for PubMed 35512704

B1: RAC-alpha serine/threonine-protein kinase (Homo sapiens), P31749 (parent)
chain: MSDVAIVKEGWLHKRGEYIKTWRPRYFLLKNDGTFIGYKERPQDVDQREAPLNNFSVAQCQLMKTERPRPNTFIIRCLQWTTVIERTFHVETPEEREEWTTAIQTVADGLKKQEEEEMDFRSGSPSDNSGAEEMEVSLAKPKHRVTMNEFEYLKLLGKGTFGKVILVKEKATGRYYAMKILKKEVIVAKDEVAHTLTENRVLQNSRHPFLTALKYSFQTHDRLCFVMEYANGGELFFHLSRERVFSEDRARFYGAEIVSALDYLHSEKNVVYRDLKLENLMLDKDGHIKITDFGLCKEGIKDGATMKTFCGTPEYLAPEVLEDNDYGRAVDWWGLGVVMYEMMCGRLPFYNQDHEKLFELILMEEIRFPRTLGPEAKSLLSGLLKKDPKQRLGGGSEDAKEIMQHRFFAGIVWQHVYEKKLSPPFKPQVTSETDTRYFDEEFTAQMITITPPDQDDSMECVDSERRPHFPQFSYSASGTA
partner: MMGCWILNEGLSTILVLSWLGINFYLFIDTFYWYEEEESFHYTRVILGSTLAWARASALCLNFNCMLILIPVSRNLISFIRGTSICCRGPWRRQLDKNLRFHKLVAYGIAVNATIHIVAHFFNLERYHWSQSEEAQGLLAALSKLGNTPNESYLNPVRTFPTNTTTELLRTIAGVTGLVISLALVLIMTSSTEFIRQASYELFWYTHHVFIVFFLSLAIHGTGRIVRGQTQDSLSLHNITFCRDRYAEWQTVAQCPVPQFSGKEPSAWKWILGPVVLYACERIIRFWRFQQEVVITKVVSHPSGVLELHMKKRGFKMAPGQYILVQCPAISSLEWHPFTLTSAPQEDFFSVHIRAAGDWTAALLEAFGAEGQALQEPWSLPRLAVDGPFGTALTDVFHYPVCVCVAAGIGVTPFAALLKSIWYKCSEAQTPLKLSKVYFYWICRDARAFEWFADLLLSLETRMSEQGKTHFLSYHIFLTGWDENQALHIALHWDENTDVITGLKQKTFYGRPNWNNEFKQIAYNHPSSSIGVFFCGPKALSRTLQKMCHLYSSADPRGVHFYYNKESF
B2: RAC-alpha serine/threonine-protein kinase (Homo sapiens), P31749 (parent)
chain: B1 chain
partner: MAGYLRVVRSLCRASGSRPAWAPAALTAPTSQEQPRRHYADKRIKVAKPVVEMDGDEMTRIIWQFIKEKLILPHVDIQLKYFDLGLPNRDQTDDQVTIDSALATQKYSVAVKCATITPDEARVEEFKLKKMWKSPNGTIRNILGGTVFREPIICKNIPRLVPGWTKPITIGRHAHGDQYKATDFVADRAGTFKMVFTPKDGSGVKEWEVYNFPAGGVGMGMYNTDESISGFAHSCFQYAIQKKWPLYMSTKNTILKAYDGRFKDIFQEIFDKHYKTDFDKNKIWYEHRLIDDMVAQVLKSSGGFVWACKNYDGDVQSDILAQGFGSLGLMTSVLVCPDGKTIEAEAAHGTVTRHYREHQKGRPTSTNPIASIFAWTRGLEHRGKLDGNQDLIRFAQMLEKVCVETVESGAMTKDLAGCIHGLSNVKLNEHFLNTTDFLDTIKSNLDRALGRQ
B3: RAC-alpha serine/threonine-protein kinase (Homo sapiens), P31749 (parent)
chain: B1 chain
partner: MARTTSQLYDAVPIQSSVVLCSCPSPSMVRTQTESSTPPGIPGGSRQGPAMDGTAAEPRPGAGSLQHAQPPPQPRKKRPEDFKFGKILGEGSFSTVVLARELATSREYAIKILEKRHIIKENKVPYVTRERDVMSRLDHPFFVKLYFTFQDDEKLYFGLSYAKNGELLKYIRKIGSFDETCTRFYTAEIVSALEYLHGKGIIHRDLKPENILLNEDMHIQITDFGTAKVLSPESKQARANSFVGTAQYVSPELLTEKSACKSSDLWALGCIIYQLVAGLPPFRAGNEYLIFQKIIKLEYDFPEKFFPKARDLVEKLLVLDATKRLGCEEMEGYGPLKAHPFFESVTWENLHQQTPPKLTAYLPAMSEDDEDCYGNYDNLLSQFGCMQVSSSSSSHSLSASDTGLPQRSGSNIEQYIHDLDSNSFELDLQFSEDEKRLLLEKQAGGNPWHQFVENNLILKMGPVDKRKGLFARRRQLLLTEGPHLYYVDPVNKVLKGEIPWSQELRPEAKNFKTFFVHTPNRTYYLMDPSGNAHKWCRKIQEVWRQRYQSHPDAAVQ
B4: RAC-alpha serine/threonine-protein kinase (Homo sapiens), P31749 (parent)
chain: B1 chain
partner: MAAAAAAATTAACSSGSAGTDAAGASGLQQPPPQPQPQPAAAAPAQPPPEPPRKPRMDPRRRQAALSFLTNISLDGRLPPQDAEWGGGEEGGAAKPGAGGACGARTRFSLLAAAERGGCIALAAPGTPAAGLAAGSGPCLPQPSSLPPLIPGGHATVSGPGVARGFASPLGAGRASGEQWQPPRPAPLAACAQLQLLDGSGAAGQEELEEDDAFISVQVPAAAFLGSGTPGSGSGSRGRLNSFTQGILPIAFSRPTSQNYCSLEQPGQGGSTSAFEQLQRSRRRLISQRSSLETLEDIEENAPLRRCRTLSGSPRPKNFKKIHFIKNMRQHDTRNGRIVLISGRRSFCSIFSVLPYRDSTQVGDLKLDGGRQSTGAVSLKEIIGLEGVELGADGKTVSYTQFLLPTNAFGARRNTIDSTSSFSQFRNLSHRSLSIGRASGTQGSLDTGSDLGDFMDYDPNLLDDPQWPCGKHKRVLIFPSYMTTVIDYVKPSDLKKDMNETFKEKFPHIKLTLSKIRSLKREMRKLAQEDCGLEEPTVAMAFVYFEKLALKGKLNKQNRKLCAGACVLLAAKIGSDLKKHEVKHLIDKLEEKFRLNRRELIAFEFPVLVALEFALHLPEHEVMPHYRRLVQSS
B5: RAC-alpha serine/threonine-protein kinase (Homo sapiens), P31749 (parent)
chain: B1 chain
partner: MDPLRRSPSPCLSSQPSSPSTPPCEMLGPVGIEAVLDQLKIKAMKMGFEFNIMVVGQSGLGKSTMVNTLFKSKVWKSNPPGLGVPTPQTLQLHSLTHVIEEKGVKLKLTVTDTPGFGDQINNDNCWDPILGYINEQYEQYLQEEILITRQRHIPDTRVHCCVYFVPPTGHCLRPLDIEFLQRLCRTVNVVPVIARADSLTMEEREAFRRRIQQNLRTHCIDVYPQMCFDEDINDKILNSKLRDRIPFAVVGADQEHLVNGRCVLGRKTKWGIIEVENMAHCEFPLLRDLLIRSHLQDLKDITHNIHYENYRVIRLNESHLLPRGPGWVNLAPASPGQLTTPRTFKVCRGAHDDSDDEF
B6: RAC-alpha serine/threonine-protein kinase (Homo sapiens), P31749 (parent)
chain: B1 chain
partner: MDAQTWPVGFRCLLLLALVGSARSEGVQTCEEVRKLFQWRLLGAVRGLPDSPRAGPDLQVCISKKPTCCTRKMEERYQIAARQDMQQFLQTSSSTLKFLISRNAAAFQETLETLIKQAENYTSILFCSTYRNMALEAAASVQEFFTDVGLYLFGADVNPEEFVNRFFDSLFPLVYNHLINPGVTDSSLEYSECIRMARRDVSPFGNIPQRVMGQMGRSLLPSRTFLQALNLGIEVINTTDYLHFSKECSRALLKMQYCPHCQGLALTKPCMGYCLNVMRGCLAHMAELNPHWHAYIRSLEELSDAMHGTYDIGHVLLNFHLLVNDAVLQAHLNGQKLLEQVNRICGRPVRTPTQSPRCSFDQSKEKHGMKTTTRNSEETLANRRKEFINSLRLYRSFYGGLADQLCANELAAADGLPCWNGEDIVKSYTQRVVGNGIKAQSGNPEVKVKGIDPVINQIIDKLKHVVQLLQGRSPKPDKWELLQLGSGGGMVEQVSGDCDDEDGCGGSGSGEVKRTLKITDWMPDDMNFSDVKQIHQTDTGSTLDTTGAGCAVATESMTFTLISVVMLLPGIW
B7: RAC-alpha serine/threonine-protein kinase (Homo sapiens), P31749 (parent)
chain: B1 chain
partner: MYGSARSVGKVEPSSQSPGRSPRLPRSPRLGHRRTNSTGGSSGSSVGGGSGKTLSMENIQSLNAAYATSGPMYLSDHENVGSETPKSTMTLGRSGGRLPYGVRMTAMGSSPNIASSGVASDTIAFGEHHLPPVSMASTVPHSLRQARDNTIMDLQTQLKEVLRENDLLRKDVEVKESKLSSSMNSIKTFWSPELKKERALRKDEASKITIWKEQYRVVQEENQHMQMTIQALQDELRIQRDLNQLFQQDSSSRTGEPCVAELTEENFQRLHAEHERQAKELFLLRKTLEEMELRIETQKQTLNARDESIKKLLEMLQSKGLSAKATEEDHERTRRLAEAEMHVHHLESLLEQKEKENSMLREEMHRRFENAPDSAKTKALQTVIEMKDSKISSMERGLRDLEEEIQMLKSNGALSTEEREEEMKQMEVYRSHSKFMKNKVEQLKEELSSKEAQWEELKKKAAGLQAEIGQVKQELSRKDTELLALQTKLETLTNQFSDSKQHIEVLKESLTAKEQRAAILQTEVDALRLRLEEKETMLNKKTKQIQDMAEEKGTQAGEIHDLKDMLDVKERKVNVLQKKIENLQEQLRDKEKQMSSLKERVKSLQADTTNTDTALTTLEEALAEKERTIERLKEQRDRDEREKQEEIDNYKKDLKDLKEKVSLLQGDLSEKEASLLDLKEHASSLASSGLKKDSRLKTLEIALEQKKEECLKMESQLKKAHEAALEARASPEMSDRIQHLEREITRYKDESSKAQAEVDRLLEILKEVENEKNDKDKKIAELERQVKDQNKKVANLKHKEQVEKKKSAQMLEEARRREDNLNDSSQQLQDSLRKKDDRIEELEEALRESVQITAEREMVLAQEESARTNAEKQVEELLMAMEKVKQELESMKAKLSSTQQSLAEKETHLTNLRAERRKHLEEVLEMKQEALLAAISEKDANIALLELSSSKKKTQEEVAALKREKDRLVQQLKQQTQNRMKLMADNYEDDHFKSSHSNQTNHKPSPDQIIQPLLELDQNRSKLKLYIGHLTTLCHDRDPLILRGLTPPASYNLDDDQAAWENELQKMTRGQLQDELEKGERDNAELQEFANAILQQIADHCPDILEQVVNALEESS
B8: RAC-alpha serine/threonine-protein kinase (Homo sapiens), P31749 (parent)
chain: B1 chain
partner: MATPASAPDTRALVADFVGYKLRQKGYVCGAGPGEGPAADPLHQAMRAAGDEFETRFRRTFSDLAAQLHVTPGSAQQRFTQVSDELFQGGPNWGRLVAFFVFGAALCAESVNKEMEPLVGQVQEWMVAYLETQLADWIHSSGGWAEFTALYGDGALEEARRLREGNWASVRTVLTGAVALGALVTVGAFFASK
B9: RAC-alpha serine/threonine-protein kinase (Homo sapiens), P31749 (parent)
chain: B1 chain
partner: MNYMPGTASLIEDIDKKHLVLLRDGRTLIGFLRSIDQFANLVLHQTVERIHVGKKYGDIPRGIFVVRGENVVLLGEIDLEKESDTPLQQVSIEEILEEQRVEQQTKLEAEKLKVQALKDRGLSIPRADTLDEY
B10: RAC-alpha serine/threonine-protein kinase (Homo sapiens), P31749 (parent)
chain: B1 chain
partner: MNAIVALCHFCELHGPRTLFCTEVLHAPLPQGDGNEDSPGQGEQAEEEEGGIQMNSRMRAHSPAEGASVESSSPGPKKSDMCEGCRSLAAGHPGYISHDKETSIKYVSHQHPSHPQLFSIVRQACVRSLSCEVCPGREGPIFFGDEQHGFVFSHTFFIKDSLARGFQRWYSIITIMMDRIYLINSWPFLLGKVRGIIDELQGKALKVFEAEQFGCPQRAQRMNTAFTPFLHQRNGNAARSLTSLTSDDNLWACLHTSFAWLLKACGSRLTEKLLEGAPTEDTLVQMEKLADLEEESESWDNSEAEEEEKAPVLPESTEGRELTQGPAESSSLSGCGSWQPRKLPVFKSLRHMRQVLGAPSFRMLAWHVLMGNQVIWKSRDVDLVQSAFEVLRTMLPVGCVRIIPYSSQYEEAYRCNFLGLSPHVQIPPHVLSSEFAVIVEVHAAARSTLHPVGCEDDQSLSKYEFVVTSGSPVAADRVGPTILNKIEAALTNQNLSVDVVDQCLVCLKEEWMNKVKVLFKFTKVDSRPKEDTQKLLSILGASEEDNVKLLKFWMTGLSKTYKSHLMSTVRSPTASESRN

Variants of: B1
Settings: with nox3_human NOX3, Q9HBY0

Variant | effect of a mutation on the interaction
E17K | causing an interaction

Variants of: B2
Settings: with idhp_human IDH2, P48735

Variant | effect of a mutation on the interaction
E17K | with no effect

Variants of: B3
Settings: with pdpk1_human PDPK1, O15530

Variant | effect of a mutation on the interaction
E17K | causing an interaction

Variants of: B4
Settings: with cabl1_human CABLES1, Q8TDN4

Variant | effect of a mutation on the interaction
E17K | causing an interaction

Variants of: B5
Settings: with sep12_human SEPTIN12, Q8IYM1

Variant | effect of a mutation on the interaction
E17K | with no effect

Variants of: B6
Settings: with gpc5_human GPC5, P78333

Variant | effect of a mutation on the interaction
E17K | with no effect

Variants of: B7
Settings: with rb6i2_human ERC1, Q8IUD2

Variant | effect of a mutation on the interaction
E17K | with no effect

Variants of: B8
Settings: with b2cl2_human BCL2L2, Q92843

Variant | effect of a mutation on the interaction
E17K | disrupting interaction strength

Variants of: B9
Settings: with lsm1_human LSM1, O15116

Variant | effect of a mutation on the interaction
E17K | with no effect

Variants of: B10
Settings: with flcn_human FLCN

Variant | effect of a mutation on the interaction
E17K | with no effect
